Experimental data as given in patent publication US12360111B2, “G protein-coupled receptor screening systems” (The University of North Carolina at Chapel Hill, priority 2018, dated 2025).

By UniProt entry, the sequences of proteins in these tests, tags left out. Where a name states a change or a piece, a line headed by the entry shows the natural chain unless it says otherwise.
UniProt P41145: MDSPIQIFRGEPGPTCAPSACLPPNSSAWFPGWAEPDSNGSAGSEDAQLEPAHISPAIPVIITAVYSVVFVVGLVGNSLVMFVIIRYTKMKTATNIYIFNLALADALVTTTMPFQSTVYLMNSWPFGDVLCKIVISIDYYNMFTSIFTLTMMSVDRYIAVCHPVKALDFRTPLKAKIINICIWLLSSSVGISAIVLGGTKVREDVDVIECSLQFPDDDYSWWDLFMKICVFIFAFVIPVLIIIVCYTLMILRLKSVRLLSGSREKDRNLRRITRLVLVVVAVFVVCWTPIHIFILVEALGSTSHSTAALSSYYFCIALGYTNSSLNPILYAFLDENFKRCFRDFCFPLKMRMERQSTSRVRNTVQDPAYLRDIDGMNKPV

Target: KOR, Gαi/o-class TRUPATH sensors (Homo sapiens, UniProt P41145)
Assay: TRUPATH profiling of KOR agonists
Type: cell-based

**Q.** How did the “efficacy across transducers (in words)” value turn out when `CO[C@]12CC[C@@]3(C[C@@H]1C(C)(C)O)[C@H]1Cc4ccc(O)c5c4[C@@]3(CCN1CC1CC1)[C@H]2O5` was run?
**A.** exhibited efficacy bias
